Data published in publication PMC3722857 (Chemico-biological interactions, 2013).

The chains behind the UniProt entries cited, without tags or fusion partners.
UniProt P03372, whole entry: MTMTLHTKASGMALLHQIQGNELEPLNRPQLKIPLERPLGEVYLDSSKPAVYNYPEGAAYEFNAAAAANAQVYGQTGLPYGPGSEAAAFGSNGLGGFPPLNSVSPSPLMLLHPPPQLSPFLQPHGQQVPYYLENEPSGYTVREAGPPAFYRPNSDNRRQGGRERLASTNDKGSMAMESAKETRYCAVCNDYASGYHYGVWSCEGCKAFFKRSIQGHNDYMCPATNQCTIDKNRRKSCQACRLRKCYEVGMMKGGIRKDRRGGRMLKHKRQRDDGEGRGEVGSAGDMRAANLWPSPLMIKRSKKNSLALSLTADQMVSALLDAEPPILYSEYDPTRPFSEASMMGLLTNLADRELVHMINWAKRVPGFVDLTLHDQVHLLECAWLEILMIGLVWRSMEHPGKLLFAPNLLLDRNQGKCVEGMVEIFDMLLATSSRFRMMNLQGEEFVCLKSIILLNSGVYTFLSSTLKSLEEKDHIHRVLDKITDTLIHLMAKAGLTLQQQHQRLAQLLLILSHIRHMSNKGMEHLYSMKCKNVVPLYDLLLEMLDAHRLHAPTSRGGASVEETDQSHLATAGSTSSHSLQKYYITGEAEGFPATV

Biological target: full-length ERα (Homo sapiens, UniProt P03372)
Assay: ERα transient transfection 3X-ERE-luciferase assay, antagonist mode
Assay type: cell-based
Settings: CV1 cells, in words

C[C@]12CC[C@@H]3c4ccc(O)cc4C[C@@H](CCCCCCCCC[S+]([O-])CCCC(F)(F)C(F)(F)F)[C@H]3[C@@H]1CC[C@@H]2O (stereo partly shown) [ICI,182780, ICI 182,780, reference compound]
ER inhibition: completely blocked ERα activity at nM concentrations
